The list shows a part of the results, in another mix than the full data. Inconclusive results are not listed. Calls of active or inactive are those of the source. The call rests on the fitted dose curve; in most records, active means well fitted curve in the direction sought with a large enough effect; inconclusive means small, poorly fitted or top-dose-only effect, or another doubt; inactive means no such curve, though single readings can be large or run the other way.
The compounds below were run against Transient receptor potential cation channel subfamily V member 1 (Homo sapiens) (UniProt Q8NER1) (assay: qHTS Assay for Compounds that Act as Potentiators of the Vanilloid Receptor 1: Hit Validation). Conditions: TRPV1-expressing cells, Fluo-8 calcium influx, capsaicin EC20; at 42.1 µM (top of the series).
Description: The transient receptor potential ion channel, family V, number 1, (TRPV1) is one of the most important molecular transducers of painful stimuli and a potential target for analgesic drug development. Although recent clinical trials with orthosteric antagonists have not produced a successful drug because of a hyperthermia side effect and their tendency to block thermal noxious pain, this ion channel is undeniably well placed in the pain pathway, and the idea of blocking pain signals before they enter the CNS is an excellent concept and of proven efficacy when TRPV1 agonists are used. […]
Upon TRPV1 activation in TRPV1 cells, the channel opens and extracellular cations flow through the channel into the cytosol. […] The amount of accumulated calcium is precisely quantified using the FDSS kinetic reader and the calcium dye. […] Plates will be loaded into the FDSS kinetic reader and a 1 sec / cycle for 10 second baseline signal will be measured. Compound library will then be added with a pintool at 23 nl and measured kinetically for 3 minutes. This portion of the read is considered the agonist portion of the screen. […] Signal will be measured kinetically for an additional 2 minutes. This portion of the read is considered the allosteric enhancer portion of the screen. The FDSS reader has a standard filter set capable of measuring calcium bound Fluo-8 (ex=480 and em=520 nm).
Further: % of control where 0% means no effect.

The chains behind the UniProt entries cited, without tags or fusion partners.
UniProt Q8NER1, whole entry: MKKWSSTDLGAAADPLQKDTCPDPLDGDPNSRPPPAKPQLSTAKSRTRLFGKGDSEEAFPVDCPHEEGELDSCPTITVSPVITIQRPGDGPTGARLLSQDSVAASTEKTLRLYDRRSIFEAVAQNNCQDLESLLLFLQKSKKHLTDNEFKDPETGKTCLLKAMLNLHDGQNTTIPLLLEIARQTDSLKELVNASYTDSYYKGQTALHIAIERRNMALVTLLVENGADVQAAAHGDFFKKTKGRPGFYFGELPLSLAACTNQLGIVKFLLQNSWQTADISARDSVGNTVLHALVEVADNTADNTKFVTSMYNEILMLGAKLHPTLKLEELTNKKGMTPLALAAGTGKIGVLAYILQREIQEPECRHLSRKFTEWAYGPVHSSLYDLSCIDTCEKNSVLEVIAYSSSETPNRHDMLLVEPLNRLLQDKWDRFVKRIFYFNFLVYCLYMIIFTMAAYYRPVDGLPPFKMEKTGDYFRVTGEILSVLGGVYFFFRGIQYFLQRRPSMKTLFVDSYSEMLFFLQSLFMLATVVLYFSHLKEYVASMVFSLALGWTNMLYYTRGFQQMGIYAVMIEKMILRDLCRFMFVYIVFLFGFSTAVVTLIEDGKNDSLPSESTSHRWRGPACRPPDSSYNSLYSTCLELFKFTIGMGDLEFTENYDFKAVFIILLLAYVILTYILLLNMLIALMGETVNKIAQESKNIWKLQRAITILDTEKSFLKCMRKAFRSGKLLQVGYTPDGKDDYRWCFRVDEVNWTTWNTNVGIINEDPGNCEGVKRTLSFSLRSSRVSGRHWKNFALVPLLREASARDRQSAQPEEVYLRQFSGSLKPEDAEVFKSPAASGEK

Q: How did the activity change, positive = potentiation turn out when `COc1ccc(C(=O)NCC2(N3CCOCC3)CCCCC2)cc1OC` was run?
A: The activity change, positive = potentiation was inactive: 4.55%.
